The results in this text go back to PubChem BioAssay AID652083 (The Scripps Research Institute Molecular Screening Center, 2013).

This is one part of the list. The source made the active and inactive calls.

The assay deals with Cl# channel (GABA-gated). As to the kind of experiment: PubChem AID 652083. As to conditions: CEREP radioligand binding panel, % inhibition at 10 uM, hits give high values.

Take `COC(=O)c1cc(Br)cnc1N1CCC(NC2CCCCC2)C(O)C1` (stereo unspecified): the inhibition of specific binding was inactive: 6%.
